Measurements: patent US12414566B2, “Safener containing herbicidal oil dispersion” (ARYSTA LIFESCIENCE INC, priority 2017, dated 2025)

crystallization upon dilution (butyl benzoate as the carrier): does not crystalize out upon dilution
crystallization in the concentrated oil dispersion (dispersed in oil phase, cold temperature storage, such as 0-5° C.): crystallizes
crystallization in water upon dilution (suspended CQM, forming cloquintocet hydrate): crystallized in water upon dilution
SMILES: CCCCCC(C)OC(=O)COc1ccc(Cl)c2cccnc12 (stereo not shown) [cloquintocet-mexyl]
crystallization at low temperatures (butyl benzoate as the carrier): does not crystalize out at low temperatures
